# AlphaSeq binding of Ab-91 heavy chain variants to a spike HR2 peptide

Values reported by Engelhart et al. 2022, doi:10.1038/s41597-022-01779-4 (FLAb copy).

Antigen: PDVDLGDISGINAS, a 14-residue peptide of the SARS-CoV-2 spike HR2 region.

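The starting antibody came from a phage panning campaign against this peptide. In library AAYL51, one, two or three CDR residues were substituted; doubles and triples were drawn at random. The assay is AlphaSeq: two haploid yeast populations carry antibody and antigen on their surface. Mating (16 h, 30 °C) was followed by selection of diploids and sequencing of their barcodes. The ratio of observed to expected reads was calibrated, replicate by replicate, on BCL2-family standards whose Kd was known from biolayer interferometry. Each pool was mated in three replicate cultures.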

Parent scFv Ab-91: VL joined to VH by the linker GGGGSGGGGSGGGGS. Changes lie in the heavy chain CDRs alone.
VL: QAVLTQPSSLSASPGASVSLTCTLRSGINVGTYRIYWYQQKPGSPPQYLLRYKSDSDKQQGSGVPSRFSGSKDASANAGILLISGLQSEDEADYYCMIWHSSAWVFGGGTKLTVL
VH: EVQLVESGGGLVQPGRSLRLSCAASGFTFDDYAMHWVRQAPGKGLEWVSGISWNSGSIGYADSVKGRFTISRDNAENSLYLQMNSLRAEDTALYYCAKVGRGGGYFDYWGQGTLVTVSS

The parent's heavy chain CDRs are GFTFDDYAMH, GISWNSGSIGYADSVK, VGRGGGYFDY; each variant's own CDRs replace them letter for letter.
Numbers give log10(Kd / nM), so 0 is 1 nM and 3 is 1 µM. Smaller is tighter.
Averages over replicates are reported, and they cover detected replicates only.
A pair that was not seen in that replicate is written "n.d."; this usually means weak binding, but a binder can also be missed.
As a blank, each scFv also met three strains without target: over library AAYL51, 21% of these pairings were detected, typically at 4.54 and seldom below 3.26. Also given: how often the same scFv was detected with the empty control strains, with their mean in brackets.
In this assay the parent's reference entry averaged 1.86; its copy inside this library read 0.88.

CDR-H1 | CDR-H2 | CDR-H3 | log10 Kd (nM) by replicate | mean, log10 nM | empty controls
HFTFDDYGMH | QISWNSGSIGYADSVK | VGRGGGYFDY | n.d. n.d. 4.56 | 4.56 | 0 of 9
GFTFDDYAMH | GISWNSGSQGYAYSVW | VGRGGGYFDY | n.d. n.d. n.d. | n.d. | 5 of 9 (3.69)
GFSFDDYAMH | GISWNSGSIGYADSVK | VGFGGGYFDY | 3.84 3.05 2.81 | 3.23 | 2 of 9 (4.36)
GFTFDDYAMT | GISWNSGSIGYADSVK | VGRLGKYFDY | n.d. 4.13 n.d. | 4.13 | 0 of 9
GFTFDDYAMH | GISWNSVSIGYAFSVK | VGRGGGYFKY | n.d. 3.65 n.d. | 3.65 | 2 of 9 (4.17)
GFTFWDYAMH | GIIWNSGSIGYADSVK | HGRGGGYFDY | 4.47 5.01 n.d. | 4.74 | 2 of 9 (5.04)
GFTFDDYAMH | GIKWNSGSIGYADSVD | VGRGGGYFDY | 4.63 5.31 5.58 | 5.17 | 7 of 9 (4.99)
GFTFDDYAMH | GISWNSGSIGYQDSLE | VGRGGGYFDY | n.d. n.d. n.d. | n.d. | 0 of 9
GFTEDDYAMH | GKSWASGSIGYADSVK | VGRGGGYFDY | n.d. 3.99 4.57 | 4.28 | 6 of 9 (4.60)
GFTFDDNAMH | GISWHSGSIGYADSVK | VGRGGGYFDY | 4.38 2.44 n.d. | 3.41 | 0 of 9
GFTFDDYAMH | GISWNSGLIGYADSVK | KGRGIGYFDY | n.d. n.d. n.d. | n.d. | 0 of 9
GFTFDDYAMH | GISWNSTSQGYAQSVK | VGRGGGYFDY | 2.08 2.23 2.18 | 2.16 | 4 of 9 (4.50)
GQTFDDYAMH | GISWNSGSIGYADSVK | VGRGKGYFDN | n.d. n.d. 3.35 | 3.35 | 1 of 9 (4.94)
GFTFDDYAMH | GISPNSGSIGYADSVK | VGRGGHYFDY | 3.50 n.d. n.d. | 3.50 | 1 of 9 (4.00)
GFTFDDYAMH | VISWNSGSIGYADSVK | VQRGHGYFDY | n.d. n.d. n.d. | n.d. | 0 of 9
GFTFDNYAMH | GHSWNSGSIGYADSVK | VGRGGGYFDY | 4.25 4.35 n.d. | 4.30 | 2 of 9 (4.16)
GFTFDDYAMH | GISWFSGSIGYADSAK | VGRGGGYFDK | n.d. 6.01 n.d. | 6.01 | 4 of 9 (4.33)
QFTFDDYAMH | GINWNSGSIGYADSVK | TGRGGGYFDY | n.d. n.d. n.d. | n.d. | 0 of 9
GFTFDDYAMH | GSSWNSGSIGYADSVK | VGNGGLYFDY | 3.81 n.d. n.d. | 3.81 | 1 of 9 (3.81)
GFTVDDAAMH | GISWNSGIIGYADSVK | VGRGGGYFDY | 4.78 n.d. n.d. | 4.78 | 2 of 9 (4.82)
GFTFDDYAMH | GISWNSGSIGYADSVK | VGRGGGLGDW | 4.64 3.44 3.82 | 3.97 | 4 of 9 (4.77)
GFYFPDYAMH | GISWNSGSIGYADSVK | YGRGGGYFDY | n.d. n.d. n.d. | n.d. | 1 of 9 (3.01)
PFTFGDYAMH | GISWNSVSIGYADSVK | VGRGGGYFDY | 3.37 n.d. n.d. | 3.37 | 1 of 9 (3.78)
GFTFDSYAMH | GISWNSGSIGYADSVK | VGRGGGYFDY | 1.28 1.40 0.75 | 1.14 | 2 of 9 (4.53)
GFTFDDYALH | GKSWNSGSIGYADSVK | VGRWGGYFDY | n.d. n.d. 3.76 | 3.76 | 0 of 9
GFTFDDYADH | GISWNSGSTGYADIVK | VGRGGGYFDY | n.d. n.d. n.d. | n.d. | 0 of 9
GFTFDDQAMH | GISWNSGSIGYADSVK | VGRGGLYFDY | n.d. n.d. n.d. | n.d. | 0 of 9
GFTFDDYAMH | GISWNSDSIGYADSVK | VGWGGGYRDY | 4.44 5.40 4.90 | 4.91 | 9 of 9 (4.99)
GFTFDDYSMH | GISWNSGSIGYADSVK | VGRGYGYFDY | n.d. n.d. n.d. | n.d. | 3 of 9 (4.06)
PFTFDDYAMH | GISWNSGSIGYADSVK | VGRGVGYFDY | n.d. n.d. n.d. | n.d. | 1 of 9 (4.32)
GFTFDDYAFH | GISWNSGSIGYTDSVK | VGRGGPYFDY | n.d. n.d. n.d. | n.d. | 0 of 9
GFTFDDYAMH | GISWNSESIGYADSVK | VGGGGGYFSY | 1.58 1.59 1.26 | 1.48 | 2 of 9 (3.19)
DFTFDDYLMH | GISWHSGSIGYADSVK | VGRGGGYFDY | 5.86 n.d. n.d. | 5.86 | 5 of 9 (4.79)
GFTFADYAVH | GISWNSGSIGYADSVK | VGTGGGYFDY | 1.94 2.60 2.14 | 2.23 | 2 of 9 (5.08)
GFTFADYAMH | GISWNSGSIGYADSVK | VGRGHAYFDY | n.d. n.d. n.d. | n.d. | 1 of 9 (3.60)
GFTFDDYAMH | GWSWNSGSIGYDTSVK | VGRGGGYFDY | 5.63 n.d. n.d. | 5.63 | 1 of 9 (4.31)
GFTFDDYAMH | GIVWNSGSIGYADSVF | VGRGSGYFDY | n.d. n.d. n.d. | n.d. | 0 of 9
GFTFDDPAMH | GISWPSGSIGYADSVK | VERGGGYFDY | n.d. n.d. n.d. | n.d. | 0 of 9
GFTFDDYAMH | GILWPSGSIGYADSGK | VGRGGGYFDY | n.d. n.d. n.d. | n.d. | 2 of 9 (3.66)
GFTFDDYAMH | GFSWNSGSIGWADSVK | VGRGGGYFSY | 4.14 n.d. n.d. | 4.14 | 4 of 9 (4.55)
GFTADDYAMH | GISWNSGSIGRAHSVK | VGRGGGYFDY | 3.78 4.74 n.d. | 4.26 | 2 of 9 (4.01)
GFTFDDYAMH | GISSNSGSIGYADSVK | VGRGGPSFDY | 4.31 2.34 2.44 | 3.03 | 0 of 9
GFNFDDYAMH | GISWNSGSIGYADSVK | AGRGPGYFDY | 3.12 n.d. n.d. | 3.12 | 1 of 9 (4.40)

The closing 3 entries, repeated:

CDR-H1 | CDR-H2 | CDR-H3 | log10 Kd (nM) by replicate | mean, log10 nM | empty controls
GFTADDYAMH | GISWNSGSIGRAHSVK | VGRGGGYFDY | 3.78 4.74 n.d. | 4.26 | 2 of 9 (4.01)
GFTFDDYAMH | GISSNSGSIGYADSVK | VGRGGPSFDY | 4.31 2.34 2.44 | 3.03 | 0 of 9
GFNFDDYAMH | GISWNSGSIGYADSVK | AGRGPGYFDY | 3.12 n.d. n.d. | 3.12 | 1 of 9 (4.40)